From ChEMBL document CHEMBL1150347, “A prodomain peptide of Plasmodium falciparum cysteine protease (falcipain-2) inhibits malaria parasite development” (J Med Chem, 2008)

Test system: Plasmodium falciparum
Assay: Growth inhibition at 24 hrs of Plasmodium falciparum 3D7 by [3H]hypoxanthine uptake
Assay type: functional, organism-based
Procedure, shortened: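 Synchronized ring-stage P. falciparum-infected RBCs incubated 24 h with a range of peptide concentrations, with OVA peptide as control. About 1 µCi [3H]hypoxanthine added per well and cultures kept a further 24 h. Cells harvested and incorporated label counted by scintillation.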

## CC[C@H](C)[C@H](NC(=O)[C@H](CCCCN)NC(=O)[C@@H](NC(=O)[C@H](CCC(N)=O)NC(=O)[C@@H](N)CCCNC(=N)N)[C@@H](C)CC)C(=O)N[C@@H](Cc1c[nH]c2ccccc12)C(=O)N[C@@H](Cc1ccccc1)C(=O)N[C@@H](CCC(N)=O)C(=O)N[C@@H](CC(N)=O)C(=O)N[C@@H](CCCNC(=N)N)C(=O)N[C@@H](CCCNC(=N)N)C(=O)N[C@@H](CCSC)C(=O)N[C@@H](CCCCN)C(=O)N[C@@H](Cc1c[nH]c2ccccc12)C(=O)N[C@@H](CCCCN)C(=O)N[C@@H](CCCCN)C(=O)O
  Activity: inactive

Active and inactive are the calls of the source. The calls are words filed in the database; no cut-off is given here.
